Only a part is listed here, and it is no random draw. The source made the active and inactive calls. No stated cut-off is given here; in the data, active means inhibition above about 27%; inactive means the rest.

The chains behind the UniProt entries cited, without tags or fusion partners. Where a name states a change or a piece, a line headed by the entry shows the natural chain unless it says otherwise.
UniProt O43603: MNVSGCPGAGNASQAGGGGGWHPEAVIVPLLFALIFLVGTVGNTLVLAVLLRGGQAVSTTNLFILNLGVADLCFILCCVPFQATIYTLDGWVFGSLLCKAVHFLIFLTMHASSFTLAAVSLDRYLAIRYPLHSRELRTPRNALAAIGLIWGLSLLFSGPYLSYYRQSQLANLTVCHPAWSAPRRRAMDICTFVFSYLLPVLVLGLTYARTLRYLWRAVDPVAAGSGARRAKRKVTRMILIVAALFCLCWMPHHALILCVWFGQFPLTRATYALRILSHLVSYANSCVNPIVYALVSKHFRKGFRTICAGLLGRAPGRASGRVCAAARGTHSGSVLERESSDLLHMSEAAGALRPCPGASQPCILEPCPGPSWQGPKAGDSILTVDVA

One may read the inhibition as the drop in the measured response relative to a control, in per cent.

The target in this assay is Galanin receptor type 2 (Homo sapiens) (UniProt O43603). Briefly: GALR2 antagonists in receptor-expressing cells, primary screen (AID 828).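 Further: cells stimulated with galanin 1-16 at roughly its EC80; 0% = agonist challenge control and 100% = basal control without agonist.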 Conditions: antagonist mode, at 4 µM, stronger effect = higher value.
Regarding `O=P1(Nc2nc3ccc(Cl)cc3s2)COc2ccccc2O1` (stereo not drawn), the inhibition was inactive: -6.68%.
With `CCC(=O)N1C2C3N(C(=O)CC)C1C1N(C(=O)CC)C(C(N1C(=O)CC)N3C(=O)CC)N2C(=O)CC`, the inhibition is inactive: -1.61%.
Regarding `CC(=O)NC(SC(=S)N(CC(C)C)CC(C)C)C(Cl)(Cl)Cl` (stereo not drawn), the inhibition is inactive: -0.5%.
Next, `COC(=O)c1cc2c(s1)N=C(c1ccccc1)N(C)P2(=O)N1CCOCC1` (stereo not drawn): inactive: 9.57%; `CCOC(=O)NC(Sc1ccccc1)C(Cl)(Cl)Cl` (stereo not drawn): inactive: -6.41%; `CC(=O)NC(SC(=S)N(C)C)C(Cl)(Cl)Cl` (stereo not drawn): inactive: 18.7%.
Turning to `O=C(OC1CN2CCC1CC2)c1cccc(Cl)c1` (stereo not drawn), the inhibition is inactive: -2.09%.
Turning to `C(Cc1nn[nH]n1)Cc1nn[nH]n1`, the inhibition is inactive: 0.79%.
Regarding `CC(C)C(=O)NC(Sc1ccccc1)C(Cl)(Cl)Cl` (stereo not drawn), the inhibition is inactive: -1.47%.
Turning to `O=P(Nc1nccs1)(c1ccccc1)c1ccccc1`, the inhibition is inactive: 5.04%.
Next, `c1nnnn1CCn1cnnn1`: inactive: 10.2%; `CC1CCN(C(=O)Oc2c(Cl)cc(Cl)c3cccnc23)CC1`: inactive: -6.55%; `CN(C)C(=O)OCCc1n(C)cc[n+]1C`: inactive: -0.22%.
The value for `CCc1nc2c(n1)c1c(non1O)c1c2no[n+]1[O-]` was active: 35%.
The value for `O=[N+]([O-])c1cccc2n[nH]nc12` was inactive: -1.14%; that for `CC(=O)N1C2C3N(C(C)=O)C1C1N(C(C)=O)C(C(N1C(C)=O)N3C(C)=O)N2C(C)=O` was inactive: -5.26%.
For `CCOP(=O)(Nc1ccccc1)OCC`, the inhibition was inactive: 4.41%.
For `Cc1cc(SC(NC(=O)c2ccc(F)cc2)C(Cl)(Cl)Cl)ncn1` (stereo not drawn), the inhibition was inactive: -10.3%.
Regarding `Cc1c2non([O-])c-2c(C)[n+](=O)[n+]1[O-]`, the inhibition was inactive: 4.41%.
Consider `O=C(NC(Sc1ccncn1)C(Cl)(Cl)Cl)c1ccccc1` (stereo not drawn), for which the inhibition was inactive: 14.6%.
Next, `Oc1ccccc1CNc1ccccn1`: inactive: -2.26%; `CC(C)CC(=O)NC(Sc1ccc(Cl)cc1)C(Cl)(Cl)Cl` (stereo not drawn): inactive: 3.9%.
Turning to `CN1CCCC(OC(=O)C(c2ccccc2)c2ccccc2)C1` (stereo not drawn), the inhibition is inactive: 2.9%.
Next, `Cc1c2c(nc3ccccc13)SC(C(Cl)Cl)C2` (stereo not drawn): inactive: -2.89%; `O=C(OC1CN2CCC1CC2)C12CC3CC(CC(C3)C1)C2` (stereo not drawn): inactive: -16.9%; `ClCCSc1nnc(-c2cccnc2)o1`: inactive: 4.36%.
`O=[N+]([O-])c1cc([N+](=O)[O-])c(-c2ccn[nH]2)s1`: the inhibition was inactive: -3.31%.
The value for `CCN(CC)C(=S)SC(NC=O)C(Cl)(Cl)Cl` (stereo not drawn) was inactive: -7.88%; that for `Cc1ccc2nc3c(c(C)c2c1)CC(C(Cl)Cl)S3` (stereo not drawn) was inactive: 7.61%; that for `Cc1cc(SC(NC(=O)c2ccccc2)C(Cl)(Cl)Cl)nc(C(C)C)n1` (stereo not drawn) was inactive: 5.84%.
Next, `CCC(C)N(CC(C)C)C(=S)SC(NC(C)=O)C(Cl)(Cl)Cl` (stereo not drawn): inactive: -0.08%.
As for `COP1(=S)c2c(C)nn(CCC#N)c2N=C(c2ccc(F)cc2)N1C` (stereo not drawn), the inhibition was inactive: -0.84%.
With `O=C(COc1ccccc1)OC1CN2CCC1CC2` (stereo not drawn), the inhibition was inactive: -14.5%.
On to `CC1(CBr)Cn2c(nc3ccccc3c2=O)S1` (stereo not drawn), for which the inhibition is inactive: -7.72%.
Next, `O=P1(Nc2ccccn2)COc2ccccc2OC1`: inactive: 2.87%; `Clc1n[nH]nc1-c1nn[nH][15n]1`: inactive: -2.9%.
The value for `O=P1(Nc2ncccn2)COc2ccccc2OC1` was inactive: 1.29%; that for `O=P1(Nc2ccc(Br)cn2)COc2ccccc2OC1` was inactive: 5.52%; that for `Cc1ccc(OCC(=O)OC2CN3CCC2CC3)cc1` (stereo not drawn) was inactive: 10.3%.
Take `Cc1nn(-c2ccccc2)c2c1P(=O)(N1CCOCC1)N(C)C(c1ccccc1)=N2` (stereo not drawn): the inhibition is inactive: -9.72%.
Consider `CCOP1(=S)c2c(C)nn(CCC#N)c2N=C(c2ccc(F)cc2)N1C` (stereo not drawn), for which the inhibition was inactive: 5.98%.
As for `O=[N+]([O-])c1ccc2c(c1)nnn2O`, the inhibition was inactive: 2.32%.
With `O=P(Nc1nccs1)(c1ccccc1)c1nc2ccccc2s1` (stereo not drawn), the inhibition is active: 34.7%.
Next, `CCOP1(=S)c2c(C)nn(CCC#N)c2N=C(c2ccccc2F)N1C` (stereo not drawn): inactive: 5.35%; `Cc1ccc(NCCc2c([N+](=O)[O-])cc([N+](=O)[O-])cc2[N+](=O)[O-])cc1`: inactive: -2.48%.
`CCOP(=O)(Nc1cccc2ccccc12)OCC`: the inhibition was inactive: 7.89%.
The value for `COc1cc(C2NCCC3(OCCO3)C2(C)C)cc(OC)c1OC` (stereo not drawn) was inactive: 3.14%; that for `Cc1cccc(OCC(=O)OC2CN3CCC2CC3)c1` (stereo not drawn) was inactive: -19.3%.

The record behind these values is PubChem BioAssay AID828 (The Scripps Research Institute Molecular Screening Center, 2007).
